Values quoted from earlier work, collected in publication PMC3267170, “Pharmacological Modulation of Diacylglycerol-Sensitive TRPC3/6/7 Channels” (Current Pharmaceutical Biotechnology, 2011).

Details: exposed to light and oxygen; cited from earlier work

In the case of hyperforin, the stability is listed as “very unstable”.
